Tested on: normal mouse splenocytes
Format: cell-based
Conditions: mouse splenocytes, 10, 50 and 100 µM, 20 h

Substance: [Ru(η^6-p-cymene)(η^6-CQDP)][BF4]2 [Complex 5]
- toxicity to normal cells (in words): comparable to or lower than that of CQDP
